Assay results as given in IntAct's records for PubMed 21685944.

B1: Beta-arrestin-1 (Rattus norvegicus (Rat)), P29066 (parent)
chain: MGDKGTRVFKKASPNGKLTVYLGKRDFVDHIDLVDPVDGVVLVDPEYLKERRVYVTLTCAFRYGREDLDVLGLTFRKDLFVANVQSFPPAPEDKKPLTRLQERLIKKLGEHAYPFTFEIPPNLPCSVTLQPGPEDTGKACGVDYEVKAFCAENLEEKIHKRNSVRLVIRKVQYAPERPGPQPTAETTRQFLMSDKPLHLEASLDKEIYYHGEPISVNVHVTNNTNKTVKKIKISVRQYADICLFNTAQYKCPVAMEEADDTVAPSSTFCKVYTLTPFLANNREKRGLALDGKLKHEDTNLASSTLLREGANREILGIIVSYKVKVKLVVSRGGLLGDLASSDVAVELPFTLMHPKPKEEPPHREVPESETPVDTNLIELDTNDDDIVFEDFARQRLKGMKDDKDEEDDGTGSPHLNNR

Variants of: B1
Details: with hif1a_human HIF1A

Row | Variant | effect of a mutation on the interaction
1 | MGDKGTRVFKKASPNGKLTVYLGKRDFVDHIDLVDPVDGVVLVDPEYLKERRVYVTLTCAFRYGREDLDVLGLTFRKDLFVANVQSFPPAPEDKKPLTRLQERLIKKLGEHAYPFTFEIPPNLPCSVTLQPGPEDTGKACGVDYEVKAFCAENLEEKIHKRNSVRLVIRKVQYAPERPGPQPTAETTRQFLMSDKPLHLEASLDKEIYYHGEPISVNVHVTNNTNKTVKKIKISVRQYADICLFNTAQYKCPVAMEEADDTVAPSSTFCKVYTLTPFLANNREKRGLALDGKLKHEDTNLASSTLLREGANREILGIIVSYKVKVKLVVSRGGLLGDLASSDVAVELPFTLMHPKPKEEPPHREVPESETPVDTNLIELDTNDDDIVFEDFARLRLKGMKDDKDEEDDGTGSPHLNNR [Q394L] | decreasing interaction strength
